Data reported in ChEMBL document CHEMBL3822453 (J Med Chem, 2016).

Legend:
[1] = target: T1, DNA repair protein RAD51 homolog 1 (Homo sapiens) (UniProt Q06609); details: 5 to 100 uM
T1 sequence (whole entry): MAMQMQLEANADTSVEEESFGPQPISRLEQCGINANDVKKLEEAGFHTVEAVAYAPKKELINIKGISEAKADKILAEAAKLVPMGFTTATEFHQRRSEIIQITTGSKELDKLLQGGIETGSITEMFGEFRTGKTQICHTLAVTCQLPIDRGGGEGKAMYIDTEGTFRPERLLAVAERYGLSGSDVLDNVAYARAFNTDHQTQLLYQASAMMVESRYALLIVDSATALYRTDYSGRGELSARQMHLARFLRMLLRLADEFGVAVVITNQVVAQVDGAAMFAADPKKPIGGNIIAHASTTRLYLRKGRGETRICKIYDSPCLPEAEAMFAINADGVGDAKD

[2] = target: T2, DNA repair protein RAD51 homolog 1 (Homo sapiens, UniProt Q06609); test: Inhibition of human N-terminal 6-histidine/Avi-tagged recombinant RAD51 expressed in Escherichia coli BL21(DE3) assessed as D-loop formation using 5'-32P-labeled 90-mer ssDNA as substrate preincubated for 10 mins followed by substrate addition with subsequent incubation with substrate for 5 mins measured after 20 mins in presence of supercoiled pRS306 dsDNA by agarose gel electrophoresis
T2 sequence (Q06609 whole entry): T1 sequence (whole entry)

[3] = target: T2, DNA repair protein RAD51 homolog 1; test: Inhibition of RAD51-mediated homologous recombination in human HEK293-DR-GFP cells transfected with pCBASce expressing I-Sce-I after 24 hrs following transfection by 7-aminoactinomycin D staining based flow cytometry
[4] = target: T2, DNA repair protein RAD51 homolog 1; test: Inhibition of Escherichia coli BL21(DE3) expressing human N-terminal 6-histidine/Avi-tagged RAD51 binding to 5'-Alexa488-oligo-dT45 ssDNA preincubated for 40 mins followed by substrate addition measured after 40 mins by fluorescence polarization based microplate method
Method in brief: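 Human RAD51 preincubated with compound in DMSO at 37 °C for 40 min, then 5'-Alexa488-oligo-dT45 added and incubated another 40 min at 37 °C. Buffer: 20 mM HEPES pH 7.5, 2 mM ATP, 10 mM MgCl2, 0.1 mM TCEP. Final: 0.2 µM RAD51, 2.22 nM ssDNA, 30 mM NaCl, 4% DMSO. Fluorescence polarization read at 485/535 nm. IC50 from least-squares dose–response fits with standard error.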

| SMILES | Imax [1] | other results |
| --- | --- | --- |
| CCCOc1ccc2c(c1)nc(-c1ccc(N)cc1)c1cccn12 | 75% | – |
| Oc1ccc(-c2nc3cc(O)ccc3n3cccc23)cc1 | 97% | – |
| Oc1ccc(-c2nc3ccccc3n3cccc23)cc1 | 38% | – |
| FC(F)(F)Oc1ccc(-c2nc3ccccc3n3cccc23)cc1 | 22% | – |
| CN(C)c1ccc(-c2nc3ccccc3n3cccc23)cc1 | 61% | – |
| c1ccc2c(c1)nc(-c1ccncc1)c1cccn12 | 63% | – |
| Nc1ccc(-c2nc3cc(F)ccc3n3cccc23)cc1 | 95% | – |
| Nc1cccc(-c2nc3ccccc3n3cccc23)c1 | 79% | – |
| CCNc1ccc(-c2nc3ccccc3n3cccc23)cc1 | – | IC50 [2]: 11.1 µM; IC50 [3]: 3 µM |
| C1=C(c2nc3ccccc3n3cccc23)CCCC1 | 5% | – |
| COc1ccc2c(c1)nc(-c1ccc([N+](=O)[O-])cc1)c1cccn12 | 17% | – |
| CN(C)c1ccc(-c2nc3cc(OC(C)(C)C(N)=O)ccc3n3cccc23)cc1 | 38% | – |
| CN(C)c1ccc(-c2nc3cc(F)ccc3n3cccc23)cc1 | 31% | – |
| c1ccc2c(c1)nc(-c1ccc(N3CCCC3)cc1)c1cccn12 | 8% | – |
| Nc1ccc(-c2nc3cc(O)ccc3n3cccc23)cc1 | 100% | – |
| c1cncc(-c2nc3ccccc3n3cccc23)c1 | 70% | – |
| Oc1ccc2c(c1)nc(-c1cccnc1)c1cccn12 | – | IC50 [4]: > 100 µM |
| Nc1ccc(-c2nc3ccccc3n3cccc23)cc1 | 100% | – |
| c1ccc2c(-c3nc4ccccc4n4cccc34)cccc2c1 | 42% | – |
| O=[N+]([O-])c1cccc(-c2nc3ccccc3n3cccc23)c1 | 20% | – |
| O=[N+]([O-])c1ccc(-c2nc3cc(O)ccc3n3cccc23)cc1 | 13% | – |
| O=[N+]([O-])c1ccc(-c2nc3ccccc3n3cccc23)cc1 | 2% | – |
| Nc1ccc(-c2nc3cc(OCCF)ccc3n3cccc23)cc1 | 98% | – |
| Nc1ccc(-c2nc3cc(F)c(F)cc3n3cccc23)cc1 | 59% | – |
| CN(C)c1ccc(-c2nc3cc(F)c(F)cc3n3cccc23)cc1 | 19% | – |
